Experimental data from PubChem BioAssay AID1020 (Sanford-Burnham Center for Chemical Genomics, 2008).
This is a selection; strong and weak results do not stand in their true shares. Activity calls are given as the source filed them. No stated cut-off is given here; in the data, active means inhibition above about 50%; inactive means the rest.

These compounds were tested on glucose-6-phosphate dehydrogenase [Leuconostoc mesenteroides] (assay: bacterial G6PDH enzyme inhibition, coupled readout – biochemical, Leuconostoc mesenteroides enzyme, counter-screen for G6PDH-coupled screening assays (AID 1020)). Settings: Purified L. mesenteroides G6PDH, diaphorase/resazurin coupled fluorescence, 45 min; at 5 µM; hits give high values.
For `CN(C)CCOC(=O)C(O)(c1ccccc1)C1CCCCC1` (stereo not given), the inhibition was inactive: 5.2%.
In the case of `COc1ccc(NP(C)(=O)Oc2ccccc2OC)cc1` (stereo not given), the inhibition is reported as inactive: 3.6%.
For `COc1ccc(OP(C)(=O)Nc2cccc(Br)c2)cc1` (stereo not given), the inhibition was inactive: -1.1%.
`O=[N+]([O-])c1cc([N+](=O)[O-])c(NCC2CCS(=O)(=O)C2)c([N+](=O)[O-])c1` (stereo not given) was tested, and the inhibition was inactive: 20.4%.
`CCOP(C)(=S)SCC(=O)NC(C)(CC)C(=O)O` (stereo not given) was tested, and the inhibition was inactive: 7.1%.
`Cc1ccccc1NP(C)(=O)Nc1ccccc1C` was tested, and the inhibition was inactive: 13.7%.
With `CP(=O)(Nc1ccc2c(c1)OCCO2)Oc1ccccc1` (stereo not given) the inhibition was inactive: -4.7%.
`CP(=O)(Nc1ccccc1F)Oc1ccccc1` (stereo not given) was tested, and the inhibition was inactive: 6.2%.
For `CC(C)c1ccc(OP(C)(=O)Nc2ccc(SC(F)(F)F)cc2)cc1` (stereo not given), the inhibition was inactive: 4.1%.
For `O=C(OCCN1CCN(CCOCc2ccccc2)CC1)C(O)(c1ccccc1)c1ccccc1`, the inhibition was inactive: 2.5%.
In the case of `CCOC(=O)c1ccc(NP(C)(=O)Oc2ccc(F)cc2)cc1` (stereo not given), the inhibition is reported as inactive: 9.5%.
In the case of `COc1ccc(OP(C)(=O)Nc2ccc(SC(F)(F)F)cc2)cc1` (stereo not given), the inhibition is reported as inactive: 7.1%.
For `CP(=O)(Nc1ccccc1)Oc1ccc(F)cc1` (stereo not given), the inhibition was inactive: 0.9%.
`CCN(CC)CCCOC(=O)C(O)(c1ccccc1)C1CCCCC1` (stereo not given) was tested, and the inhibition was inactive: 1%.
In the case of `COc1ccccc1OP(C)(=O)Nc1ccc(C)c(C)c1` (stereo not given), the inhibition is reported as inactive: -4.3%.
In the case of `COc1ccc(OP(C)(=O)Nc2ccccc2Br)cc1` (stereo not given), the inhibition is reported as inactive: -13.1%.
With `Cc1cc(C)cc(OP(C)(=O)Nc2cccc(C(F)(F)F)c2)c1` (stereo not given) the inhibition was inactive: 13.4%.
`CP(=O)(OCCOc1ccccc1)OCCOc1ccccc1` was tested, and the inhibition was inactive: 1.5%.
In the case of `CP(=O)(Nc1ccc(Cl)cc1Cl)Oc1ccccc1` (stereo not given), the inhibition is reported as inactive: 2%.
For `Cc1nc2ccc3ccccc3c2o1.O=[N+]([O-])c1cc([N+](=O)[O-])c(O)c([N+](=O)[O-])c1`, the inhibition was active: 52.5%.
`COc1ccc(OP(C)(=O)Nc2ccccn2)cc1` (stereo not given) was tested, and the inhibition was inactive: -0.7%.
With `CN(C)CCOC(=O)C(O)(c1ccccc1)C1CCCC1` (stereo not given) the inhibition was inactive: 9%.
For `COc1ccccc1OP(C)(=O)Nc1ccc(C)cc1C` (stereo not given), the inhibition was inactive: 12.2%.
In the case of `CP(=O)(Nc1ccccn1)Oc1ccccc1` (stereo not given), the inhibition is reported as inactive: -13.4%.
In the case of `CCc1ccc(OP(C)(=O)O)cc1`, the inhibition is reported as inactive: 17%.
`O=[N+]([O-])c1cc([N+](=O)[O-])c(Nc2ccccn2)c([N+](=O)[O-])c1` was tested, and the inhibition was active: 62.7%.
With `Cc1c(NP(C)(=O)Oc2ccc(C(C)C)cc2)c(=O)n(-c2ccccc2)n1C` (stereo not given) the inhibition was inactive: 8%.
With `COc1ccccc1OP(C)(=O)Nc1c(C)n(C)n(-c2ccccc2)c1=O` (stereo not given) the inhibition was inactive: -2.3%.
For `CCc1ccc(OP(C)(=O)Nc2cccnc2)cc1` (stereo not given), the inhibition was inactive: -4.9%.
`CP(=O)(Oc1ccccc1)N1CCOC1=O` (stereo not given) was tested, and the inhibition was inactive: 7.4%.
`COc1ccc(OP(C)(=O)Nc2ccc(Br)cc2)cc1` (stereo not given) was tested, and the inhibition was inactive: 2.9%.
`CCN(CC)CC(O)COC(=O)C(O)(c1ccccc1)C1CCCCC1` (stereo not given) was tested, and the inhibition was inactive: 4.2%.
For `CN(C)C(=O)c1c([N+](=O)[O-])cc([N+](=O)[O-])cc1[N+](=O)[O-]`, the inhibition was inactive: 18.6%.
`CC(C)(C)c1ccc(OP(C)(=O)O)cc1` was tested, and the inhibition was inactive: 6.4%.
`COc1ccccc1OP(C)(=O)Nc1ccccc1Br` (stereo not given) was tested, and the inhibition was inactive: 17.3%.
`CP(=O)(Nc1ccc(Cl)cc1)Oc1ccc(F)cc1` (stereo not given) was tested, and the inhibition was inactive: 4.4%.
For `CCOC(=O)c1ccc(NP(C)(=O)Oc2ccc(Cl)cc2)cc1` (stereo not given), the inhibition was inactive: 1.3%.
With `CP(=O)(OC12CC3CC(CC(C3)C1)C2)OC12CC3CC(CC(C3)C1)C2` the inhibition was inactive: -1.5%.
For `CP(=O)(Nc1ccccc1Br)Oc1ccccc1` (stereo not given), the inhibition was inactive: 4.9%.
In the case of `COc1ccccc1OP(C)(=O)Nc1ccccc1` (stereo not given), the inhibition is reported as inactive: 7%.
`CP(=S)(Nn1cnnc1)Oc1ccccc1` (stereo not given) was tested, and the inhibition was inactive: -7.8%.
For `Cc1cc(C)cc(OP(C)(=O)Nc2ccc(SC(F)(F)F)cc2)c1` (stereo not given), the inhibition was inactive: -22.1%.
In the case of `CP(=O)(NC(=O)Nc1ccccc1)Oc1ccccc1` (stereo not given), the inhibition is reported as inactive: -0.6%.
In the case of `CP(=O)(Oc1ccccc1)OC(c1ccccc1)C(F)(F)F` (stereo not given), the inhibition is reported as inactive: 13.5%.
With `Cc1cccc(C)c1OP(C)(=O)Nc1ccc(SC(F)(F)F)cc1` (stereo not given) the inhibition was inactive: -4.5%.
`CP(=O)(Nc1ccccn1)Oc1ccc(Cl)cc1` (stereo not given) was tested, and the inhibition was inactive: 4.2%.
`CCOC(=O)c1ccc(NP(C)(=O)Oc2ccc(OC)cc2)cc1` (stereo not given) was tested, and the inhibition was inactive: 10.2%.
In the case of `CCOP(C)(=S)SCC(=O)NC(C)C(=O)O` (stereo not given), the inhibition is reported as inactive: 16.7%.
In the case of `CCN(CC)CCCOC(=O)C(O)(c1ccccc1)c1ccccc1`, the inhibition is reported as inactive: -6.6%.
In the case of `O=[N+]([O-])c1ccc2c(c1)C=Nc1ccccc1O2`, the inhibition is reported as inactive: 2.3%.
`Cc1cccc(C)c1OP(C)(N)=O` (stereo not given) was tested, and the inhibition was inactive: 6.6%.
With `CC(C)(C)c1ccc(OP(C)(=O)Nc2ccc(SC(F)(F)F)cc2)cc1` (stereo not given) the inhibition was inactive: 4.2%.
`Cc1cc(C)cc(OP(C)(N)=O)c1` (stereo not given) was tested, and the inhibition was inactive: 14.8%.
`COc1ccc(OP(C)(=O)Nc2cccc(F)c2)cc1` (stereo not given) was tested, and the inhibition was inactive: 5.6%.
For `COc1ccccc1OP(C)(=O)Nc1cc(Cl)ccc1C` (stereo not given), the inhibition was inactive: 2.8%.
In the case of `Cc1ccc(NP(C)(=O)Oc2ccccc2)c(C)c1` (stereo not given), the inhibition is reported as inactive: 19.2%.
In the case of `COc1ccccc1OP(C)(=O)Nc1ccc(C)cc1` (stereo not given), the inhibition is reported as inactive: 6%.
With `CCOC(=O)c1ccc(NP(C)(=O)Oc2ccccc2)cc1` (stereo not given) the inhibition was inactive: 0.1%.
With `CC1=NCCc2c1[nH]c1ccccc21.O=[N+]([O-])c1cc([N+](=O)[O-])c(O)c([N+](=O)[O-])c1` the inhibition was inactive: 5%.
In the case of `CCOC(=O)c1ccc(NP(C)(=O)Oc2cc(C)cc(C)c2)cc1` (stereo not given), the inhibition is reported as inactive: -7.4%.
For `Cc1cc(C)cc(OP(C)(=O)Nc2ccc(C)cc2C)c1` (stereo not given), the inhibition was inactive: 7.7%.
With `Cc1ccc(C)c(NP(C)(=O)Oc2ccccc2)c1` (stereo not given) the inhibition was inactive: 2.5%.
`CP(=O)(Nc1cccc(Br)c1)Oc1ccccc1` (stereo not given) was tested, and the inhibition was inactive: 12.4%.
With `Cc1cc(C)cc(OP(C)(=O)Nc2ccccn2)c1` (stereo not given) the inhibition was inactive: 3%.
For `O=[N+]([O-])c1cc([N+](=O)[O-])c(-n2nnc3ccccc32)c([N+](=O)[O-])c1`, the inhibition was inactive: 7.2%.
`Cc1nc2ccc3ccccc3c2s1.O=[N+]([O-])c1cc([N+](=O)[O-])c(O)c([N+](=O)[O-])c1` was tested, and the inhibition was inactive: 8.5%.
With `CP(=O)(Nc1ccc(SC(F)(F)F)cc1)Oc1ccccc1` (stereo not given) the inhibition was inactive: 1.9%.
In the case of `CCCOc1ccc(NP(C)(=O)Oc2ccc(Cl)cc2)cc1` (stereo not given), the inhibition is reported as inactive: 0.1%.
For `CN1CCCCC1COC(=O)C1(O)c2ccccc2CCc2ccccc21` (stereo not given), the inhibition was inactive: 19.7%.
`COc1ccccc1OP(C)(=O)Nc1c(C)cccc1C` (stereo not given) was tested, and the inhibition was inactive: 16.8%.
